# Source: patent US7615102B2, “Corrosion and gas hydrate inhibitors with an increased biological degradability and a reduced toxicity” (Clariant Produkte (Deutschland) GmbH, priority 2004, dated 2009)
# Assay: Biodegradability (OECD 306)
row,Substance,Biodegradability
1,"Dodecenyl-/tetradecenylsuccinic Acid N,N-dibutylamino-N-tri(ethoxy)ethyl Ester Triethanolamine Salt [Compound from example 13]",81.5%
2,"Pentapropylenesuccinic Acid N,N-dibutylamino-N-tri(ethoxy)ethyl Ester Triethanolamine Salt [Compound from example 16]",85.4%
